Test results: patent US5565566A (Discovery Therapeutics, Inc., priority 1995, dated 1996)

Tests used:
[1] = molecular target: T1, A2 receptors (Homo sapiens, UniProt P29274); assay: antagonism of NECA-stimulated adenylate cyclase in human platelet membranes (A); format: biochemical
T1 construct: Human Platelet Membranes; from tissue; host or cells: human platelets (membranes)

[2] = system: adenosine receptor; conditions: cited from earlier work

| SMILES | Kb [1] | selectivity among adenosine receptors [2] |
| --- | --- | --- |
| Cn1cnc2c(N)ncnc21 [9-Methyladenine (9-MA), 9-Methyladenine, reference compound] | 24 µM |  |
| CCNC(=O)[C@H]1O[C@@H](n2cnc3c(N)ncnc32)[C@H](O)[C@@H]1O [NECA, 5'-N-ethylcarboxamido-adenosine] |  | selective for A2 adenosine receptors |
